Values of other authors as cited in US4847295A, “Cycloalkyl-substituted 4-aminophenyl halo derivatives and process for their preparation” (Farmitalia Carlo Erba S.r.l., priority 1987, dated 1989).

System: aromatase
Settings: reported in literature; cited from earlier work

## CCC1(c2ccc(N)cc2)CCC(=O)NC1=O (stereo not shown) [Aminoglutethimide, aminoglutethimide]
  aromatase-inhibiting action (in words): more or less selective aromatase-inhibiting action
